Data: patent US20220026432A1, “METHOD FOR FORECASTING ARRIVAL OF DRUG INSIDE DISEASED TISSUE” (Konica Minolta, Inc., priority 2019, published 2022)

What was measured:
Format in all cases: in vivo, immunodeficient mouse (SCID-Beige)
[1] = tested on: cancer tissue (PDX) derived from a breast cancer patient; experiment: Trastuzumab arrival inside tissue, trastuzumab fluorescent nanoparticle staining of PDX specimens (Example 1); details: PDX No. 1 and No. 2 specimens; trastuzumab 1 mg/kg or 10 mg/kg intraperitoneally; FIG. 2
Text: A cancer tissue (PDX) derived from a breast cancer patient was cut into fragments of 1 mm^3 or less and transplanted into a breast fat pad of a 4-week-old female immunodeficient mouse (SCID-Beige). The mouse was used as a first-generation transplanted mouse. After the cancer tissue transplanted into the first-generation transplanted mouse grew to a predetermined size, the grown cancer tissue was transplanted into another immunodeficient mouse. The mouse was used as a second-generation transplanted mouse. This transplantation operation was repeated to prepare a fourth-generation transplanted mouse. […] After a lapse of a predetermined time after the administration, the mouse was euthanized, and the cancer cell was collected to be used as an animal model sample of No. 1 or No. 2.
The two types of CDX samples (BT474 and HCC1954) and the two types of PDX samples (No. 1 and No. 2) prepared above were each embedded in a frozen tissue embedding agent and frozen with liquid nitrogen/n-hexane to prepare frozen blocks. […]
At this time, the excitation light was set to 575 to 600 nm using an optical filter for excitation light, and a wavelength to be observed was set to 612 to 692 nm using an optical filter for fluorescence. […]

[2] = tested on: HCC-1954-luciferase cells; experiment: Trastuzumab arrival in BST2 knockout tumor transplantation model (Example 4)
Method: 100 nM OnTarget (registered trademark) siRNA designed to target BST2 or siRNA (manufactured by Horizon Discovery) as a control was introduced into HCC-1954-luciferase cells and cultured in an RPMI-1640 medium. After culturing, the cells were subjected to trypsin treatment according to a conventional method and suspended in a PBS buffer. Thereafter, 1/10 amounts of Matrigel (registered trademark) and 100 nM Accell (registered trademark) siRNA designed to target BST2 or siRNA (manufactured by Horizon Discovery) as a control were added thereto to prepare a cell suspension. A 1.7×10^7 cells/100 μL cell suspension was inoculated subcutaneously into the left flank of a 4-week-old female immunodeficient mouse (SCID-Beige).
After a lapse of a predetermined time after the administration, the mouse was euthanized, and the cancer cell was collected to prepare a BST2 knockout tumor transplantation model.
Using the PDX, an observation specimen sample for HER2 expression was prepared in a similar manner to Example 3, and morphologically observed. Results thereof are illustrated in FIG. 7.

[3] = tested on: CDX samples (BT474 and HCC1954) and PDX samples (No. 1 and No. 2); experiment: Trastuzumab arrival inside tissue versus HER2 and BST2 expression in CDX and PDX specimens, incl. micro imaging (Example 3); details: for arrival level of trastuzumab inside a tissue (number of bright spots): PDX (NO. 1) specimen

In the case of trastuzumab, the “bright spots of trastuzumab fluorescent nanoparticles, connective tissue region versus cancer cell region” value [1] is reported as “more bright spots of trastuzumab fluorescent nanoparticles are observed inside a connective tissue region”, the “number of bright spots indicating trastuzumab per cell, versus control” value ([2]; BST2 knockout tumor transplantation model (BST2KD) compared with control (Wild), FIG. 7B) is reported as “significantly larger” and the “delivery of trastuzumab inside a tissue” value ([2]; control (HCC1954 wild), FIG. 7A) is reported as “suppressed”. For the same substance, the “correlation between HER2 expression and the arrival level of trastuzumab inside a tissue” value ([3]; PDX (NO. 1) and PDX (NO. 2) specimens, several regions) was “no clear correlation”, the “arrival level of trastuzumab inside a tissue (number of bright spots)” value ([3]; regions where BST2 expression is relatively strong, FIG. 6A) was “low” and the “arrival level of trastuzumab inside a tissue (number of bright spots)” value ([3]; regions where BST expression is relatively low, FIG. 6B) was “high”.
